Consider eleven substances from patent publication US7803774B2, “Modulators of β-amyloid peptide aggregation” (Praecis Pharmaceuticals, Inc., priority 1999, dated 2010).

A short description of this data set: BUI#77: IN VIVO: IV BRAIN LEVELS @ 1 HOUR post 1 mL x 1 min IV. The protocol:
Table printed on a drawing sheet, Fig. 1
Title: BUI#77: IN VIVO: IV BRAIN LEVELS @ 1 HOUR post 1 mL x 1 min IV
Footnotes: All tested at max solubility in 5% mennitol, pH4 (except PPI-558=DMPC) / Brain levels determined via LC/MS/MS (0.2 mL: PPI-657=IS, except PPI-558: 2mL SepPak) / * Computed values from do area < 100
The patent's description of the figure: FIG. 1 is a table depicting the results from a brain uptake assay.
First reader's note: Rows with only a Structure cell (l-v-f-f-a, TFA. l-v-f-f-l, TFA. l-f-f-v-l) are bold group headings for the rows below them; the asterisk printed in the gap before the UNIT DOSE block is kept in its own unheaded column.
Consider “TFA.H-(l-[p-F]f-[p-F]f-vl)-NH2 [PPI-1327]”, for which the “MAX SOLUBILITY | Brain Levels (nM) + CsA | mean” value is 20 nM, the “MAX SOLUBILITY | Brain Levels (nM) | mean” value stood at 5.3 nM and the “UNIT DOSE (2mg/kg IV) | ALONE” value came to 3 nM.

As to TFA.H-(lf-[F5]f-vl)-NH2 [PPI-1320], the “MAX SOLUBILITY | Brain Levels (nM) + CsA | mean” value amounted to 16 nM, the “MAX SOLUBILITY | Brain Levels (nM) | mean” value was 5.3 nM, the “UNIT DOSE (2mg/kg IV) | (+)CsA” value is 10 nM and the “UNIT DOSE (2mg/kg IV) | ALONE” value is listed as 4 nM.

For TFA. H-(lf-[cha]-vl)-NH2 [1318 | 1318], the “MAX SOLUBILITY | Brain Levels (nM) + CsA | mean” value amounted to 3 nM, the “MAX SOLUBILITY | Brain Levels (nM) | mean” value turned out to be 2.5 nM, the “UNIT DOSE (2mg/kg IV) | (+)CsA” value is on record as 5 nM and the “UNIT DOSE (2mg/kg IV) | ALONE” value came out at 5 nM.

Turning to TFA. H-(lvf-[p-F]f-l)-NH2 [1302 | 1302], the “MAX SOLUBILITY | Brain Levels (nM) + CsA | mean” value was determined as 4 nM, the “MAX SOLUBILITY | Brain Levels (nM) | mean” value is listed as 1.3 nM, the “UNIT DOSE (2mg/kg IV) | (+)CsA” value came out at 12 nM and the “UNIT DOSE (2mg/kg IV) | ALONE” value came out at 4 nM.

As for “TFA. H-(l-[cha]-[cha]-vl)-NH2 [1326 | 1326]”, the “MAX SOLUBILITY | Brain Levels (nM) + CsA | mean” value is 2 nM, the “MAX SOLUBILITY | Brain Levels (nM) | mean” value is reported as 0.9 nM, the “UNIT DOSE (2mg/kg IV) | (+)CsA” value was found to be 15 nM and the “UNIT DOSE (2mg/kg IV) | ALONE” value was determined as 8 nM.

For the substance “4-hydroxybenzoyl-(lvffa)-NH2 [558 | 558]”, the “MAX SOLUBILITY | Brain Levels (nM) + CsA | mean” value was 24 nM, the “MAX SOLUBILITY | Brain Levels (nM) | mean” value turned out to be 3.3 nM, the “UNIT DOSE (2mg/kg IV) | (+)CsA” value is 14 nM and the “UNIT DOSE (2mg/kg IV) | ALONE” value is 2 nM.

Turning to TFA. H-(lvf-[cha]-l)-NH2 [1301 | 1301], the “MAX SOLUBILITY | Brain Levels (nM) + CsA | mean” value stood at 11 nM, the “MAX SOLUBILITY | Brain Levels (nM) | mean” value turned out to be 3.3 nM, the “UNIT DOSE (2mg/kg IV) | (+)CsA” value came out at 8 nM and the “UNIT DOSE (2mg/kg IV) | ALONE” value was 2 nM.

For the substance TFA. H-(l-[cha]-fvl)-NH2 [1322 | 1322], the “MAX SOLUBILITY | Brain Levels (nM) + CsA | mean” value was found to be 1 nM, the “MAX SOLUBILITY | Brain Levels (nM) | mean” value is reported as 0.2 nM, the “UNIT DOSE (2mg/kg IV) | (+)CsA” value came out at 16 nM and the “UNIT DOSE (2mg/kg IV) | ALONE” value is given as 3 nM.

As to TFA.H-(lf-[p-F]f-vl)-NH2 [PPI-1319], the “MAX SOLUBILITY | Brain Levels (nM) + CsA | mean” value is reported as 32 nM, the “MAX SOLUBILITY | Brain Levels (nM) | mean” value is 34.9 nM and the “UNIT DOSE (2mg/kg IV) | ALONE” value turned out to be 11 nM.

For the substance TFA.H-(lvf-[F5]f-l)-NH2 [PPI-1303], the “MAX SOLUBILITY | Brain Levels (nM) + CsA | mean” value is recorded as 4 nM, the “MAX SOLUBILITY | Brain Levels (nM) | mean” value is on record as 0.8 nM, the “UNIT DOSE (2mg/kg IV) | (+)CsA” value is on record as 7 nM and the “UNIT DOSE (2mg/kg IV) | ALONE” value stood at 2 nM.

TFA.H-(l-[F5]f-[F5]f-vl)-NH2 [PPI-1328]: the “MAX SOLUBILITY | Brain Levels (nM) + CsA | mean” value came to 7 nM, the “MAX SOLUBILITY | Brain Levels (nM) | mean” value came to 1.0 nM, the “UNIT DOSE (2mg/kg IV) | (+)CsA” value came to 11 nM and the “UNIT DOSE (2mg/kg IV) | ALONE” value is listed as 2 nM.
